The values that follow come from patent US20240307434A1, “USE OF LUTETIUM SALT COMPOUNDS FOR ANTIVIRAL EFFECT” (priority 2022, published 2024).

This series deals with HaCaT (immortalized human keratinocyte cell). The following applies: suspended with PVA, glucopan.

In the case of lutetium Borate [LuBO3], the “toxic effects on cells” value is recorded as “does not show toxic effects on cells”.
